Measured values reported in patent US5968903A, “Inhibition of H. pylori proliferation” (Biomeasure, Incorporated, priority 1998, dated 1999).

By UniProt entry, the sequences of proteins in these tests, tags left out. Where a name states a change or a piece, a line headed by the entry shows the natural chain unless it says otherwise.
UniProt P30872: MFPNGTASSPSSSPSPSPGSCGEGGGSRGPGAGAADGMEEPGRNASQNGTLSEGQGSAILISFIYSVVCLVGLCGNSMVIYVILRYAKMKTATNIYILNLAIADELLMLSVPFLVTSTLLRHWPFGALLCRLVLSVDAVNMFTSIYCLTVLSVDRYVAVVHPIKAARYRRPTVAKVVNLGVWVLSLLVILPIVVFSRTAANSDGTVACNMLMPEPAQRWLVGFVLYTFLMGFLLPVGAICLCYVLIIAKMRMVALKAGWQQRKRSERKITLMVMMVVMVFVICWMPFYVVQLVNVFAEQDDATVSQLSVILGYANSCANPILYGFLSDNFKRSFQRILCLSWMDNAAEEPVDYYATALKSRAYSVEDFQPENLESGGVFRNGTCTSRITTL

Target: human SSTR-1 (Homo sapiens, UniProt P30872)
Assay: Somatostatin receptor binding assay, hSSTR-1

CC[C@@H]1NC(=O)[C@H](CCCCN)NC(=O)[C@@H](Cc2c[nH]c3ccccc23)NC(=O)[C@H](Cc2ccc(O)cc2)NC(=O)[C@@H](NC(=O)[C@@H](Cc2ccccc2)NS(=O)(=O)CCN2CCN(CCO)CC2)CSSC[C@@H](C(=O)N[C@H](C(N)=O)[C@@H](C)O)NC1=O [Example 121]
Ki: 6.02 µM
